Permeability data for macrocyclic peptides

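Lipid, pH, incubation time, direction and concentration are not recorded in the data file. Other peptides of the study may be missing here. Entries at the database's floor value (log10 P of -10) are not listed.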

PAMPA measures passive passage through an artificial lipid membrane.
Permeability is given as log10 of P in cm/s; higher (less negative) is more permeable.

structure (SMILES)	PAMPA (log10 cm/s)
CC(=O)N1CCC[C@H]1C(=O)N(C)[C@@H](CC(C)C)C(=O)N[C@@H]1C(=O)N[C@H](CC(C)C)C(=O)N(C)[C@@H](CC(C)C)C(=O)N(C)[C@@H](CC(C)C)C(=O)N[C@@H](C)C(=O)N[C@H](CC(C)C)C(=O)N2CCC[C@@H]2C(=O)O[C@@H]1C	-6.11
CC(=O)N1CCC[C@@H]1C(=O)N(C)[C@H](CC(C)C)C(=O)N[C@@H]1C(=O)N(C)[C@@H](CC(C)C)C(=O)N(C)[C@@H](CC(C)C)C(=O)N(C)[C@@H](CC(C)C)C(=O)N[C@@H](C)C(=O)N[C@H](CC(C)C)C(=O)N2CCC[C@H]2C(=O)O[C@@H]1C	-6.09
CC(=O)N1CCC[C@@H]1C(=O)N(C)[C@@H](CC(C)C)C(=O)N[C@@H]1C(=O)N[C@H](CC(C)C)C(=O)N[C@H](CC(C)C)C(=O)N[C@H](CC(C)C)C(=O)N[C@@H](C)C(=O)N[C@H](CC(C)C)C(=O)N2CCC[C@H]2C(=O)O[C@@H]1C	-6.64
CC(=O)N1CCC[C@H]1C(=O)N[C@@H]1C(=O)N[C@H](CC(C)C)C(=O)N[C@H](CC(C)C)C(=O)N[C@H](CC(C)C)C(=O)N[C@H](CC(C)C)C(=O)N[C@@H](C)C(=O)N[C@@H](CC(C)C)C(=O)N2CCC[C@@H]2C(=O)O[C@@H]1C	-5.54
CC(=O)N1CCC[C@H]1C(=O)N[C@@H]1C(=O)N[C@H](CC(C)C)C(=O)N(C)[C@H](CC(C)C)C(=O)N(C)[C@@H](CC(C)C)C(=O)N(C)[C@H](CC(C)C)C(=O)N(C)[C@H](C)C(=O)N[C@@H](CC(C)C)C(=O)N2CCC[C@@H]2C(=O)O[C@@H]1C	-4.95
CC(=O)N1CCC[C@H]1C(=O)N(C)[C@H](CC(C)C)C(=O)N[C@@H]1C(=O)N(C)[C@@H](CC(C)C)C(=O)N(C)[C@@H](CC(C)C)C(=O)N[C@H](CC(C)C)C(=O)N[C@@H](C)C(=O)N[C@H](CC(C)C)C(=O)N2CCC[C@@H]2C(=O)O[C@@H]1C	-6.04
CC(=O)N1CCC[C@@H]1C(=O)N(C)[C@H](CC(C)C)C(=O)N[C@@H]1C(=O)N[C@H](CC(C)C)C(=O)N(C)[C@H](CC(C)C)C(=O)N[C@H](CC(C)C)C(=O)N[C@H](C)C(=O)N[C@H](CC(C)C)C(=O)N2CCC[C@@H]2C(=O)O[C@@H]1C	-7.15
CC(=O)N1CCC[C@@H]1C(=O)N(C)[C@H](CC(C)C)C(=O)N[C@@H]1C(=O)N[C@H](CC(C)C)C(=O)N[C@H](CC(C)C)C(=O)N(C)[C@H](CC(C)C)C(=O)N[C@@H](C)C(=O)N[C@H](CC(C)C)C(=O)N2CCC[C@H]2C(=O)O[C@@H]1C	-5.67
CC(=O)N1CCC[C@H]1C(=O)N[C@@H]1C(=O)N[C@H](CC(C)C)C(=O)N[C@H](CC(C)C)C(=O)N[C@H](CC(C)C)C(=O)N[C@H](CC(C)C)C(=O)N(C)[C@H](C)C(=O)N[C@@H](CC(C)C)C(=O)N2CCC[C@@H]2C(=O)O[C@@H]1C	-5.07
CC(=O)N1CCC[C@H]1C(=O)N(C)[C@H](CC(C)C)C(=O)N[C@@H]1C(=O)N[C@@H](CC(C)C)C(=O)N(C)[C@H](CC(C)C)C(=O)N(C)[C@H](CC(C)C)C(=O)N(C)[C@H](C)C(=O)N[C@H](CC(C)C)C(=O)N2CCC[C@@H]2C(=O)O[C@@H]1C	-5.74
CC(=O)N1CCC[C@H]1C(=O)N(C)[C@H](CC(C)C)C(=O)N[C@@H]1C(=O)N[C@@H](CC(C)C)C(=O)N[C@@H](CC(C)C)C(=O)N(C)[C@@H](CC(C)C)C(=O)N(C)[C@@H](C)C(=O)N[C@H](CC(C)C)C(=O)N2CCC[C@@H]2C(=O)O[C@@H]1C	-6.36
CC(=O)N1CCC[C@@H]1C(=O)N(C)[C@H](CC(C)C)C(=O)N[C@@H]1C(=O)N[C@H](CC(C)C)C(=O)N[C@H](CC(C)C)C(=O)N[C@H](CC(C)C)C(=O)N(C)[C@@H](C)C(=O)N[C@@H](CC(C)C)C(=O)N2CCC[C@H]2C(=O)O[C@@H]1C	-6.09
CC(=O)N1CCC[C@H]1C(=O)N(C)[C@@H](CC(C)C)C(=O)N[C@@H]1C(=O)N[C@H](CC(C)C)C(=O)N[C@H](CC(C)C)C(=O)N[C@H](CC(C)C)C(=O)N(C)[C@H](C)C(=O)N[C@@H](CC(C)C)C(=O)N2CCC[C@H]2C(=O)O[C@@H]1C	-6.24
CC(=O)N1CCC[C@@H]1C(=O)N(C)[C@@H](CC(C)C)C(=O)N[C@@H]1C(=O)N[C@@H](CC(C)C)C(=O)N[C@@H](CC(C)C)C(=O)N(C)[C@@H](CC(C)C)C(=O)N[C@@H](C)C(=O)N[C@H](CC(C)C)C(=O)N2CCC[C@H]2C(=O)O[C@@H]1C	-6.29
CC(=O)N1CCC[C@H]1C(=O)N(C)[C@@H](CC(C)C)C(=O)N[C@@H]1C(=O)N[C@H](CC(C)C)C(=O)N(C)[C@@H](CC(C)C)C(=O)N(C)[C@H](CC(C)C)C(=O)N[C@H](C)C(=O)N[C@H](CC(C)C)C(=O)N2CCC[C@@H]2C(=O)O[C@@H]1C	-6.05
CC(=O)N1CCC[C@H]1C(=O)N[C@@H]1C(=O)N[C@H](CC(C)C)C(=O)N(C)[C@H](CC(C)C)C(=O)N[C@H](CC(C)C)C(=O)N(C)[C@@H](CC(C)C)C(=O)N(C)[C@H](C)C(=O)N[C@@H](CC(C)C)C(=O)N2CCC[C@@H]2C(=O)O[C@@H]1C	-5.47
CC(=O)N1CCC[C@@H]1C(=O)N(C)[C@H](CC(C)C)C(=O)N[C@@H]1C(=O)N(C)[C@@H](CC(C)C)C(=O)N[C@@H](CC(C)C)C(=O)N[C@H](CC(C)C)C(=O)N[C@@H](C)C(=O)N[C@H](CC(C)C)C(=O)N2CCC[C@H]2C(=O)O[C@@H]1C	-6.79
CC(=O)N1CCC[C@@H]1C(=O)N(C)[C@@H](CC(C)C)C(=O)N[C@@H]1C(=O)N(C)[C@@H](CC(C)C)C(=O)N(C)[C@H](CC(C)C)C(=O)N(C)[C@H](CC(C)C)C(=O)N(C)[C@@H](C)C(=O)N[C@@H](CC(C)C)C(=O)N2CCC[C@@H]2C(=O)O[C@@H]1C	-5.42
CC(=O)N1CCC[C@H]1C(=O)N[C@@H]1C(=O)N[C@H](CC(C)C)C(=O)N[C@@H](CC(C)C)C(=O)N[C@@H](CC(C)C)C(=O)N[C@@H](CC(C)C)C(=O)N(C)[C@@H](C)C(=O)N[C@@H](CC(C)C)C(=O)N2CCC[C@@H]2C(=O)O[C@@H]1C	-6.63
CC(=O)N1CCC[C@@H]1C(=O)N(C)[C@H](CC(C)C)C(=O)N[C@@H]1C(=O)N[C@H](CC(C)C)C(=O)N[C@H](CC(C)C)C(=O)N[C@H](CC(C)C)C(=O)N[C@@H](C)C(=O)N[C@@H](CC(C)C)C(=O)N2CCC[C@H]2C(=O)O[C@@H]1C	-6.38
CC(=O)N1CCC[C@@H]1C(=O)N(C)[C@@H](CC(C)C)C(=O)N[C@@H]1C(=O)N[C@H](CC(C)C)C(=O)N[C@H](CC(C)C)C(=O)N[C@H](CC(C)C)C(=O)N[C@@H](C)C(=O)N[C@@H](CC(C)C)C(=O)N2CCC[C@H]2C(=O)O[C@@H]1C	-7.52
CC(=O)N1CCC[C@H]1C(=O)N(C)[C@H](CC(C)C)C(=O)N[C@@H]1C(=O)N(C)[C@H](CC(C)C)C(=O)N(C)[C@@H](CC(C)C)C(=O)N(C)[C@H](CC(C)C)C(=O)N(C)[C@H](C)C(=O)N[C@H](CC(C)C)C(=O)N2CCC[C@H]2C(=O)O[C@@H]1C	-5.19
CC(=O)N1CCC[C@H]1C(=O)N(C)[C@H](CC(C)C)C(=O)N[C@@H]1C(=O)N[C@H](CC(C)C)C(=O)N[C@H](CC(C)C)C(=O)N[C@H](CC(C)C)C(=O)N[C@@H](C)C(=O)N[C@H](CC(C)C)C(=O)N2CCC[C@@H]2C(=O)O[C@@H]1C	-8.00

Excerpt, the final 2 entries:

structure (SMILES)	PAMPA (log10 cm/s)
CC(=O)N1CCC[C@H]1C(=O)N(C)[C@H](CC(C)C)C(=O)N[C@@H]1C(=O)N(C)[C@H](CC(C)C)C(=O)N(C)[C@@H](CC(C)C)C(=O)N(C)[C@H](CC(C)C)C(=O)N(C)[C@H](C)C(=O)N[C@H](CC(C)C)C(=O)N2CCC[C@H]2C(=O)O[C@@H]1C	-5.19
CC(=O)N1CCC[C@H]1C(=O)N(C)[C@H](CC(C)C)C(=O)N[C@@H]1C(=O)N[C@H](CC(C)C)C(=O)N[C@H](CC(C)C)C(=O)N[C@H](CC(C)C)C(=O)N[C@@H](C)C(=O)N[C@H](CC(C)C)C(=O)N2CCC[C@@H]2C(=O)O[C@@H]1C	-8.00

Collected by the curators of CycPeptMPDB (Li et al. 2023) from Kelly et al. 2021, doi:10.1021/jacs.0c06115.